# Only a part is listed here, and it is no random draw. Calls of active or inactive are those of the source. No stated cut-off is given here; in the data, active means inhibition above about 50%; inactive means the rest.
# By UniProt entry, the sequences of proteins in these tests, tags left out.
# UniProt P34949, whole entry: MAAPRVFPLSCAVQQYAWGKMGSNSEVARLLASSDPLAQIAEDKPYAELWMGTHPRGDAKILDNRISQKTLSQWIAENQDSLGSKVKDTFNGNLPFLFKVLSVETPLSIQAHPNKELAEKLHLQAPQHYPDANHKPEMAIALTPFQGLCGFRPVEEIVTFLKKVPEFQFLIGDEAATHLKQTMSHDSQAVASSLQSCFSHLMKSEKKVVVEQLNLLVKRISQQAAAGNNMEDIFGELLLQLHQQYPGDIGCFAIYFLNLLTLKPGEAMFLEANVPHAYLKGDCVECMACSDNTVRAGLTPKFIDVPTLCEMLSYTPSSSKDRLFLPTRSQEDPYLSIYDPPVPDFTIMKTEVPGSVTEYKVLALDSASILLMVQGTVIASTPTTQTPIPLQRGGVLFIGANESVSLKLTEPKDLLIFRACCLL
# Biological target: Mannose-6-phosphate isomerase (Homo sapiens) (UniProt P34949)
# Test: MPI inhibition at elevated mannose 6-phosphate – biochemical, fluorescence intensity, high mannose 6-phosphate, primary screen (AID 1220)
# Settings: recombinant PMI enzyme, coupled fluorescence intensity; at 20 µM; hits give high values
row,Structure (SMILES),inhibition
1,Fc1ccccc1NC1CCN(Cc2ccccc2)CC1,inactive: -7.7%
2,CN(C)c1ccc(C(=O)NCC2(N3CCCCC3)CCCCC2)cc1,inactive: -3.3%
3,CCN1CCC(Nc2cccc(F)c2)CC1,inactive: -4.1%
4,CC(C)(C)OC(=O)N1CCC(Nc2ccccc2)CC1,inactive: 5.9%
5,CCOc1ncccc1C(=O)NCC1(N2CCOCC2)CCCCC1,inactive: -1.5%
6,COc1cc(OC)cc(C(=O)NCC2(N3CCOCC3)CCCCC2)c1,inactive: -6.6%
7,CCC(CO)(C(=O)OC1CN2CCC1CC2)c1ccccc1 (stereo not given),inactive: 3.3%
8,COc1ccc(C(=O)NCC2(N3CCOCC3)CCCCC2)cc1OC,inactive: -6.4%
9,O=C(OC1CN2CCC1CC2)C1c2ccccc2C=Cc2ccccc21 (stereo not given),inactive: -1.2%
10,N/C(=N\O)c1c(N)no[n+]1[O-],inactive: -10.5%
11,N#Cc1ccc(C(=O)NCC2(N3CCCCC3)CCCCC2)cc1,inactive: -8.4%
12,c1ccc(CN2CCC(Nc3ccccc3)CC2)cc1,inactive: 17.2%
13,N#CC1(Nc2ccccc2)CCN(CCc2ccccc2)CC1,inactive: 2.8%
14,O=C(NCC1(N2CCCCC2)CCCCC1)c1cccc([N+](=O)[O-])c1,inactive: -9.9%
15,O=C(NCC1(N2CCOCC2)CCCCC1)c1cc(=O)[nH]c2ccccc12,inactive: -2.2%
16,CN1CCN(CCOC(=O)C(O)(c2ccccc2)c2ccccc2)CC1,inactive: -19.5%
17,COc1ccc(NC2CCN(C(=O)OC(C)(C)C)CC2)cc1,inactive: 16.4%
18,CC(C)c1ccc(NC2CCN(C(=O)OC(C)(C)C)CC2)cc1,inactive: 29%
19,COc1ccc(CN(CCCl)CCCl)cc1Cl,inactive: 26.9%
20,CN(C)c1cccc(C(=O)NCC2(N3CCCCC3)CCCCC2)c1,inactive: 9.1%
21,COc1ccc(C(=O)NCC2(N3CCCCC3)CCCCC2)c(OC)c1OC,inactive: -8%
22,O=C(OC1CN2CCC1CC2)C1c2ccccc2Oc2ccccc21 (stereo not given),inactive: 8.2%
23,CCOC(=O)N1CCC(Nc2ccc(OC)cc2)CC1,inactive: 13.5%
24,O=C(NCC1(N2CCOCC2)CCCCC1)c1cc2ccccc2o1,inactive: -4.1%
25,COc1ccc(NC2CCN(CCc3ccccc3)CC2)c(OC)c1,active: 51.8%
